These results are taken from patent publication US20050049197A1, “Induction of immune response against desired determinants” (Epimmune Inc., priority 1993, published 2005).

The test system of the experiment is DR3. The note with it: read-out: Binding Activity DR3, IC50.

Broadly, the IC50 is the concentration that inhibits the measured activity by half. On to `CC(C)C[C@H](NC(=O)[C@@H](NC(=O)[C@H](C)NC(=O)[C@H](C)NC(=O)[C@H](C)NC(=O)[C@@H](NC(=O)[C@H](CC1CCCCC1)NC(=O)[C@H](CCCCN)NC(=O)[C@@H](C)N)C(C)C)[C@@H](C)O)C(=O)N[C@@H](CCCCN)C(=O)N[C@@H](C)C(=O)N[C@@H](C)C(=O)N[C@H](C)C(N)=O` [965.16], for which the IC50 came out at 1470 nM.
